Experimental data: PubChem BioAssay (NCI)
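Dose response: 5 concentrations. Exposure: 48 h. Format: 96-well plates. Endpoint: linear interpolation; highest concentration if not reached. GI50: concentration for 50% inhibition of growth. TGI denotes the concentration required for complete inhibition of growth.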

Legend:
Assay in all cases: NCI tumour cell line growth inhibition, 48 h
[1] = system: OVCAR-8 ovarian
[2] = system: NCI-H322M lung
[3] = system: NCI-H522 lung
[4] = system: CCRF-CEM leukemia
[5] = system: EKVX NSCLC
[6] = system: MDA-MB-435
[7] = system: SF-268 CNS
[8] = system: IGROV1 ovarian
[9] = system: SR leukemia
[10] = system: SW-620 colon
[11] = system: K-562 leukemia
[12] = system: UACC-62 melanoma
[13] = system: HL-60(TB) leukemia
[14] = system: DU-145 prostate
[15] = system: HT29 colon
[16] = system: SK-MEL-5 melanoma
[17] = system: PC-3 prostate
[18] = system: HCT-15 colon
[19] = system: SK-MEL-2 melanoma
[20] = system: MOLT-4 leukemia
[21] = system: RXF 393 renal
[22] = system: OVCAR-5 ovarian
[23] = system: SK-MEL-28 melanoma
[24] = system: HS 578T breast
[25] = system: U251 CNS
[26] = system: 786-0 renal
[27] = system: LOX IMVI melanoma
[28] = system: MDA-MB-231 breast
[29] = system: CAKI-1 renal
[30] = system: NCI/ADR-RES ovarian
[31] = system: SF-539 CNS
[32] = system: TK-10 renal
[33] = system: OVCAR-4 ovarian
[34] = system: NCI-H23 lung
[35] = system: SN12C renal
[36] = system: NCI-H226 lung
[37] = system: SK-OV-3 ovarian
[38] = system: A549 NSCLC
[39] = system: A498 renal
[40] = system: UO-31 renal
[41] = system: NCI-H460 lung
[42] = system: SF-295 CNS
[43] = system: HOP-62 NSCLC
[44] = system: MCF7 breast
[45] = system: SNB-19 CNS
[46] = system: SNB-75 CNS
[47] = system: HOP-92 NSCLC
[48] = system: T-47D breast
[49] = system: HCC-2998 colon
[50] = system: HCT-116 colon
[51] = system: BT-549 breast
[52] = system: RPMI-8226 leukemia
[53] = system: UACC-257 melanoma
[54] = system: MALME-3M melanoma
[55] = system: KM12 colon
[56] = system: COLO 205 colon
[57] = system: ACHN renal
[58] = system: M14 melanoma
[59] = system: OVCAR-3 ovarian

N#CC1(Nc2ccc(Cl)cc2)CCN(Cc2ccccc2)CC1
GI50 [1]: 30.4 µM | TGI [1]: > 100 µM | GI50 [2]: > 100 µM | TGI [2]: > 100 µM | GI50 [3]: 29.4 µM | TGI [3]: > 100 µM | GI50 [4]: 2.11 µM | TGI [4]: > 100 µM | GI50 [5]: 83.3 µM | TGI [5]: > 100 µM | GI50 [6]: 1.34 µM | TGI [6]: > 100 µM | GI50 [7]: 40.2 µM | TGI [7]: > 100 µM | GI50 [8]: 30 µM | TGI [8]: > 100 µM | GI50 [9]: 7.31 µM | TGI [9]: > 100 µM | GI50 [10]: 2.14 µM | TGI [10]: > 100 µM | GI50 [11]: 0.156 µM | TGI [11]: > 100 µM | GI50 [12]: 0.187 µM | TGI [12]: > 100 µM | GI50 [13]: 3.47 µM | TGI [13]: > 100 µM | GI50 [14]: > 100 µM | TGI [14]: > 100 µM | GI50 [15]: > 100 µM | TGI [15]: > 100 µM | GI50 [16]: 0.756 µM | TGI [16]: 13.3 µM | GI50 [17]: 22.2 µM | TGI [17]: > 100 µM | GI50 [18]: 0.664 µM | TGI [18]: > 100 µM | GI50 [19]: 15.1 µM | TGI [19]: > 100 µM | GI50 [20]: 3.17 µM | TGI [20]: 60.7 µM | GI50 [21]: > 100 µM | TGI [21]: > 100 µM | GI50 [22]: 1.63 µM | TGI [22]: > 100 µM | GI50 [23]: 60.4 µM | TGI [23]: > 100 µM | GI50 [24]: > 100 µM | TGI [24]: > 100 µM | GI50 [25]: 17.3 µM | TGI [25]: > 100 µM | GI50 [26]: 2.74 µM | TGI [26]: > 100 µM | GI50 [27]: 0.463 µM | TGI [27]: > 100 µM | GI50 [28]: 10.5 µM | TGI [28]: > 100 µM | GI50 [29]: 0.612 µM | TGI [29]: > 100 µM | GI50 [30]: 21.6 µM | TGI [30]: > 100 µM | GI50 [31]: 8.16 µM | TGI [31]: > 100 µM | GI50 [32]: 14.1 µM | TGI [32]: > 100 µM | GI50 [33]: 55.8 µM | TGI [33]: > 100 µM | GI50 [34]: 34 µM | TGI [34]: > 100 µM | GI50 [35]: 28.6 µM | TGI [35]: > 100 µM | GI50 [36]: 22.7 µM | TGI [36]: > 100 µM | GI50 [37]: > 100 µM | TGI [37]: > 100 µM | GI50 [38]: 2.82 µM | TGI [38]: > 100 µM | GI50 [39]: 21.9 µM | TGI [39]: > 100 µM | GI50 [40]: 7.81 µM | TGI [40]: > 100 µM | GI50 [41]: 0.793 µM | TGI [41]: > 100 µM | GI50 [42]: 0.979 µM | TGI [42]: > 100 µM | GI50 [43]: 59 µM | TGI [43]: > 100 µM | GI50 [44]: 4.74 µM | TGI [44]: > 100 µM | GI50 [45]: 62.9 µM | TGI [45]: > 100 µM | GI50 [46]: 57 µM | TGI [46]: > 100 µM | GI50 [47]: 35.3 µM | TGI [47]: > 100 µM | GI50 [48]: 1.8 µM | TGI [48]: > 100 µM | GI50 [49]: 3.4 µM | TGI [49]: 87.3 µM | GI50 [50]: 3.88 µM | TGI [50]: > 100 µM | GI50 [51]: 4.17 µM | TGI [51]: > 100 µM | GI50 [52]: 4.3 µM | TGI [52]: > 100 µM | GI50 [53]: 21.7 µM | TGI [53]: > 100 µM | GI50 [54]: 87.1 µM | TGI [54]: > 100 µM | GI50 [55]: 0.758 µM | TGI [55]: > 100 µM | GI50 [56]: 0.869 µM | TGI [56]: 4.98 µM | GI50 [57]: 0.491 µM | TGI [57]: > 100 µM | GI50 [58]: 0.333 µM | TGI [58]: 36.7 µM | GI50 [59]: 16.1 µM | TGI [59]: > 100 µM
